# According to PubChem BioAssay AID504414 (Broad Institute, 2011):
# The list shows a part of the results, in another mix than the full data. Some structures show a salt or complex split into parts, the way the source records it. Calls of active or inactive are those of the source.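 Rule for the calls: active = highest replicate inhibition of at least 40%; inactive = the rest.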
# Target: Golgi-associated PDZ and coiled-coil motif-containing protein (Homo sapiens) (UniProt Q9HD26)
# Test: disruption of CAL PDZ-reporter peptide interaction – biochemical, fluorescence polarization, Cer-tagged CAL PDZ, HTS, primary screen (AID 504414);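 note: plate controls were DMSO neutral control wells for no effect and unlabeled competitor peptide control wells for full effect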
# Conditions: purified CAL PDZ, TMR-peptide fluorescence polarization, 1 h; at 20 µM; stronger effect = higher value
row,SMILES,inhibition
1,COc1ccccc1OP(C)(=O)Nc1ccccc1Br (stereo unspecified),inactive: -0.283%
2,CC(C)(C)c1ccc(OP(C)(=O)O)cc1,inactive: 0.0824%
3,CN(C)C(=O)c1c([N+](=O)[O-])cc([N+](=O)[O-])cc1[N+](=O)[O-],inactive: 15.2%
4,COc1ccc(OP(C)(=O)Nc2ccc(Br)cc2)cc1 (stereo unspecified),inactive: -0.173%
5,CCN(CC)CC(O)COC(=O)C(O)(c1ccccc1)C1CCCCC1 (stereo unspecified),inactive: -0.247%
6,CCc1ccc(OP(C)(=O)Nc2cccnc2)cc1 (stereo unspecified),inactive: -0.103%
7,CP(=O)(Oc1ccccc1)N1CCOC1=O (stereo unspecified),inactive: 0.533%
8,O=C(OCCCN1CCCC1)C(O)(c1ccccc1)C1CCCCC1 (stereo unspecified),inactive: 0.305%
9,COc1ccccc1OP(C)(=O)Nc1c(C)n(C)n(-c2ccccc2)c1=O (stereo unspecified),inactive: -0.954%
10,CP(=O)(Nc1ccc2c(c1)OCCO2)Oc1ccccc1 (stereo unspecified),inactive: 0.56%
11,Cc1ccccc1NP(C)(=O)Nc1ccccc1C,inactive: 0.0908%
12,CP(=O)(Nc1ccc(SC(F)(F)F)cc1)Oc1ccc(F)cc1 (stereo unspecified),inactive: -0.99%
13,CCOP(C)(=S)SCC(=O)NC(C)(CC)C(=O)O (stereo unspecified),inactive: -2.71%
14,O=[N+]([O-])c1cc([N+](=O)[O-])c(NCC2CCS(=O)(=O)C2)c([N+](=O)[O-])c1 (stereo unspecified),inactive: -1.9%
15,Cc1cc(-c2cccc3ccccc23)c(C)cn1.O=[N+]([O-])c1cc([N+](=O)[O-])c(O)c([N+](=O)[O-])c1,inactive: -1.68%
16,O=[N+]([O-])c1ccc(OP2(=O)COCCO2)cc1 (stereo unspecified),inactive: 0.725%

row,SMILES,inhibition
1,Cc1c(C(c2ccc3c(c2)OCO3)c2c(C)n(C)n(-c3ccccc3)c2=O)c(=O)n(-c2ccccc2)n1C.O=[N+]([O-])c1cc([N+](=O)[O-])c(O)c([N+](=O)[O-])c1,inactive: 1.67%
2,COc1ccc(NP(C)(=O)Oc2ccccc2OC)cc1 (stereo unspecified),inactive: 0.423%
3,CN(C)CCOC(=O)C(O)(c1ccccc1)C1CCCCC1 (stereo unspecified),inactive: 0.63%
4,CCN(CC)CCCOC(=O)C(O)(c1ccccc1)C1CCCCC1 (stereo unspecified),inactive: -0.473%
5,Cc1c([N+](=O)[O-])cc([N+](=O)[O-])c(Br)c1[N+](=O)[O-],inactive: 0.571%
6,O=[N+]([O-])c1cc([N+](=O)[O-])c(OC2CCCCC2O)c([N+](=O)[O-])c1 (stereo unspecified),inactive: 0.0933%
7,CCCCCOc1ccc(NP(C)(=O)Oc2ccc(Cl)cc2Cl)cc1 (stereo unspecified),inactive: 1.79%
8,CP(=O)(Nc1ccccc1)Oc1ccc(F)cc1 (stereo unspecified),inactive: -2.96%
9,COc1ccc(OP(C)(=O)Nc2ccc(SC(F)(F)F)cc2)cc1 (stereo unspecified),inactive: -0.0447%
10,CCOC(=O)c1ccc(NP(C)(=O)Oc2ccc(F)cc2)cc1 (stereo unspecified),inactive: 0.346%
11,O=C(OCCN1CCN(CCOCc2ccccc2)CC1)C(O)(c1ccccc1)c1ccccc1,inactive: -2.08%
12,O=C(OC1CN2CCC1CC2)c1ccc([N+](=O)[O-])cc1 (stereo unspecified),inactive: -1.2%
13,COc1ccc2c(c1O)-c1c(O)c(OC)cc3c1[C@H](C2)[N+](C)(C)CC3.O=[N+]([O-])c1cc([N+](=O)[O-])c([O-])c([N+](=O)[O-])c1[O-],inactive: -0.909%
14,CC(C)c1ccc(OP(C)(=O)Nc2ccc(SC(F)(F)F)cc2)cc1 (stereo unspecified),inactive: -0.314%
15,CP(=O)(Nc1ccccc1F)Oc1ccccc1 (stereo unspecified),inactive: -2%
